The labels stand for the following.
B1: hsa-mir-607 (structured_RNA)
RNA: GGGAAAAUUGGGUUAGUGGACCACCAGCGGUGUACGAAGUUUCAGCGAACCCAGGGAGCCAGACUGCCUGGGUUCGCUGAAGCUUCGUGCAC
B2: hsa-mir-197 (structured_RNA)
RNA: GGGAAAGCCGCUAAGGGUAUUCAGAUAGGGUGUACGAAGUUUCAGCUGGGAGGUAAGAGCUCUUCACCCUUCAGCUGAAGCUUCGUGCAC
B3: hsa-mir-15a (structured_RNA)
RNA: GGGACGAAGGUCGACCUGAUCAACGUCAGGUGUACGAAGUUUCAGCUUUGUGGAUUUUGAAAAGGUGCAGGGCUGAAGCUUCGUGCAC
B4: hsa-mir-4688 (structured_RNA)
RNA: GGGAAUUUUGGGCCCAUCUACGGAACACGGUGUACGAAGUUUCAGCCCUCCCUAGGGGAUCCCAGGUAGGGCUGAAGCUUCGUGCAC
B5: hsa-mir-548n (structured_RNA)
RNA: GGGAAUAAGCUGCGCCCUGUCCGAAUGUGGUGUACGAAGUUUCAGCUUGUCGUUAAAAAUAGCAAGCUGAAGCUUCGUGCAC
B6: hsa-mir-374c (structured_RNA)
RNA: GGGAAAGCCGAACUAGAAACUCUGCCCUGGUGUACGAAGUUUCAGCAGUGCUAGGACACUGCUGAAGCUUCGUGCAC
B7: hsa-mir-4776-1 (structured_RNA)
RNA: GGGAAUAAGGUAGACUCACCCCAAGAUCGGUGUACGAAGUUUCAGCCAAGGGCUCUCCUGAAAGGACAGUAGAGCCCUUGGCUGAAGCUUCGUGCAC
B8: hsa-mir-6811 (structured_RNA)
RNA: GGGAAAGCUACGCGCUCCGUUCUCGAUGGGUGUACGAAGUUUCAGCCACUCAGGCAGUGCCAUGAGCGCUGAAGCUUCGUGCAC
B9: hsa-mir-6766 (structured_RNA)
RNA: GGGAUCGAAUGGCAGAAGAUCACCUCCGGGUGUACGAAGUUUCAGCAUUGAGAGUUCCUUCUCCUGCUCCUGAUGCUGAAGCUUCGUGCAC
B10: hsa-mir-5089 (structured_RNA)
RNA: GGGAACUCGGGCGCAAACUCAUCACGAUGGUGUACGAAGUUUCAGCGCAUCCUUGGAAUCUGCACUCAAGGGAUGCGCUGAAGCUUCGUGCAC
B11: hsa-mir-4695 (structured_RNA)
RNA: GGGACCCCUAUUACUUUGCAAGGCUGGAGGUGUACGAAGUUUCAGCCAGGCGGGGCAGCCCAAUGCCAUGGGCCUGAUGCUGAAGCUUCGUGCAC
B12: hsa-mir-4494 (structured_RNA)
RNA: GGGAUAUUAGCGUCGGUCUGGUACCCACGGUGUACGAAGUUUCAGCCUGAAAAUACAAAAUGGAAAAUUCCAGGCUGAAGCUUCGUGCAC
B13: hsa-mir-6825 (structured_RNA)
RNA: GGGAAAGACGCUCUGGUGCGAAAGACCCGGUGUACGAAGUUUCAGCGCAUGGGGCUAGGAGGCCCCGCGCGCUGAAGCUUCGUGCAC
B14: hsa-mir-422a (structured_RNA)
RNA: GGGACGACGCUCUGAGACCCAACUUGUAGGUGUACGAAGUUUCAGCAGGCCUGAGUCUCUCUGCUGCAGAUGGGCUCGCUGAAGCUUCGUGCAC
B15: hsa-mir-3667 (structured_RNA)
RNA: GGGACAUACGGAAUUGCGCGUGGAGUCGGGUGUACGAAGUUUCAGCAGGUUCUGCUGGCUGAGAACCUGCUGAAGCUUCGUGCAC
B16: hsa-mir-3913-1 (structured_RNA)
RNA: GGGAAAUAGGCGACGAACACCUGAAUACGGUGUACGAAGUUUCAGCGUCUGCCAAAACCUUGGCAGACGCUGAAGCUUCGUGCAC
B17: hsa-mir-3125 (structured_RNA)
RNA: GGGACCGUUAAAGGUUCGCAUGAGGGUGGGUGUACGAAGUUUCAGCGAGAACUCACGGUGCCUGUGGUUCGAGCUGAAGCUUCGUGCAC
B18: hsa-mir-3609 (structured_RNA)
RNA: GGGAAAUACUUCAACGUUGCGGCCAGUCGGUGUACGAAGUUUCAGCUCCUUUUCUCUACCUUGUAGAGAAGCAGCUGAAGCUUCGUGCAC
B19: hsa-mir-181b-2 (structured_RNA)
RNA: GGGAGCGGAUAGUUCAAGCAUAUGAAGUGGUGUACGAAGUUUCAGCUGGGUUUGAGUCUGAAUCAACUCAGCUGAAGCUUCGUGCAC
B20: hsa-mir-4535 (structured_RNA)
RNA: GGGACUCCAUCCCAUCAGGCAUUAUCCGGGUGUACGAAGUUUCAGCUCACAGUUGGUUUCUGACACGUGGGCUGAAGCUUCGUGCAC
B21: hsa-mir-3614 (structured_RNA)
RNA: GGGAAGCGCUCGGGUUCACAACUAUCGGGGUGUACGAAGUUUCAGCGCUGCCCCUUUGCUCUCUGGGGUAGCGCUGAAGCUUCGUGCAC
B22: hsa-mir-548ap (structured_RNA)
RNA: GGGAAACAAUCUGACGGUCUGCUGAAUUGGUGUACGAAGUUUCAGCCUUUGUCAUUAAAACCAAUAACAAAAGCUGAAGCUUCGUGCAC
B23: hsa-mir-6126 (structured_RNA)
RNA: GGGAAGUGGGACCGAACGACUUGUUUAAGGUGUACGAAGUUUCAGCGAGACACUCGCUGAAGCUUCGUGCAC
B24: hsa-mir-510 (structured_RNA)
RNA: GGGAAAACACUAACAUCGGCUUUACCUCGGUGUACGAAGUUUCAGCCAAUCACAUGUAAUUAGGUGUGAUUGGCUGAAGCUUCGUGCAC
B25: hsa-mir-3649 (structured_RNA)
RNA: GGGACAUGGGCUCGUACAGCGAACUUCAGGUGUACGAAGUUUCAGCACCUGUGUGUGCCCAAGUGUUUCUAGCAAACACAGGGGCUGAAGCUUCGUGCAC
B26: hsa-mir-3197 (structured_RNA)
RNA: GGGAAAUUAGCACAGGUCACUUAAGGCUGGUGUACGAAGUUUCAGCGGCGCGCGAGGCUCCAGGCUCCGCUGAAGCUUCGUGCAC

The other results are listed elsewhere or left out.

One test addresses T1, LIN28A (human?, UniProt Q9H9Z2 1-209).
T1 sequence: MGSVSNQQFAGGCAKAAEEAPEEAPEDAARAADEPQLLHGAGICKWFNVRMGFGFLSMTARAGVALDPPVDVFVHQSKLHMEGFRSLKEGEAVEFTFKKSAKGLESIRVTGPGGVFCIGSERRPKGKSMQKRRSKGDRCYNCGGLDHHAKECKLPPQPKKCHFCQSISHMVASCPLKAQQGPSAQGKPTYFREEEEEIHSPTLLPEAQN
The test can be described thus: FOREST: bead pull-down of RNA structure library v1, barcode microarray; U1A/LIN28A: 20 mM HEPES pH 7.5, 80 mM KCl, 20 mM NaCl, 10% glycerol, 2 mM DTT, 0.1 ug/uL BSA, 4 C; BG4/CIRBP/DHX36: 10 mM Tris-HCl pH 7.5, 100 mM KCl (or LiCl),; high values mean tight binding.
B1: the binding signal was -0.817 z-score.

The molecule B2 returned a binding signal of -0.893 z-score.

Molecule B3 came in with a binding signal of -0.858 z-score.

As to B4, the binding signal is -0.829 z-score.

B5 yielded a binding signal of -0.812 z-score.

With B6, the binding signal was -0.828 z-score.

B7 showed a binding signal of -0.814 z-score.

In turn, B8 yielded a binding signal of -0.909 z-score.

The molecule B9 gave a binding signal of -0.883 z-score.

The molecule B10 displayed a binding signal of -0.849 z-score.

With B11, the binding signal was -0.84 z-score.

As to B12, the binding signal was -0.852 z-score.

B13 showed a binding signal of -0.843 z-score.

With B14, the binding signal was -0.89 z-score.

Turning to B15, the binding signal was -0.86 z-score.

As to B16, the binding signal was -0.877 z-score.

B17 showed a binding signal of -0.84 z-score.

B18 showed a binding signal of -0.867 z-score.

For the molecule B19, the binding signal is -0.852 z-score.

The molecule B20 gave a binding signal of -0.906 z-score.

B21 showed a binding signal of -0.831 z-score.

Turning to B22, the binding signal is -0.862 z-score.

On to B23, for which the binding signal was -0.831 z-score.

For B24, the binding signal is -0.828 z-score.

Take B25: the binding signal is -0.863 z-score.

B26 came in with a binding signal of -0.869 z-score.

The target in the next test is T2, CIRBP (Homo sapiens, UniProt Q14011 1-172).
T2 sequence: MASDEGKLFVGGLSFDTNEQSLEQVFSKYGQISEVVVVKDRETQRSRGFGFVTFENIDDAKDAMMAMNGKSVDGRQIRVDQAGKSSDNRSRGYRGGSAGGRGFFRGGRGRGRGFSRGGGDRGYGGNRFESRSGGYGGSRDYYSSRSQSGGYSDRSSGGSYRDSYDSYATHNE
The test is described as above.
Turning to B1, the binding signal was found to be 0.437 z-score.

The molecule B2 had a binding signal of 0.709 z-score.

Molecule B3 showed a binding signal of -0.971 z-score.

Turning to B4, the binding signal was -0.28 z-score.

Turning to B5, the binding signal is -0.519 z-score.

In turn, B6 registered a binding signal of 0.533 z-score.

For B7, the binding signal came to 0.486 z-score.

Molecule B8 showed a binding signal of -0.0692 z-score.

In turn, B9 registered a binding signal of -0.199 z-score.

B10 returned a binding signal of -0.259 z-score.

On to B11, for which the binding signal came to 0.00682 z-score.

In turn, B12 displayed a binding signal of -0.491 z-score.

Molecule B13 registered a binding signal of 0.114 z-score.

Regarding B14, the binding signal is -0.682 z-score.

In turn, B15 returned a binding signal of -0.467 z-score.

B16 returned a binding signal of 0.032 z-score.

Turning to B17, the binding signal is -0.0333 z-score.

B18: the binding signal was -0.899 z-score.

Molecule B19 registered a binding signal of 0.534 z-score.

B20 showed a binding signal of -0.135 z-score.

B21 yielded a binding signal of 0.664 z-score.

In turn, B22 registered a binding signal of -1.22 z-score.

B23 displayed a binding signal of -0.885 z-score.

In turn, B24 displayed a binding signal of -0.545 z-score.

B25 yielded a binding signal of -1 z-score.

The molecule B26 registered a binding signal of -0.341 z-score.

A further test addresses T3, DHX36 (Homo sapiens, UniProt Q9H2U1 1-1008).
T3 sequence: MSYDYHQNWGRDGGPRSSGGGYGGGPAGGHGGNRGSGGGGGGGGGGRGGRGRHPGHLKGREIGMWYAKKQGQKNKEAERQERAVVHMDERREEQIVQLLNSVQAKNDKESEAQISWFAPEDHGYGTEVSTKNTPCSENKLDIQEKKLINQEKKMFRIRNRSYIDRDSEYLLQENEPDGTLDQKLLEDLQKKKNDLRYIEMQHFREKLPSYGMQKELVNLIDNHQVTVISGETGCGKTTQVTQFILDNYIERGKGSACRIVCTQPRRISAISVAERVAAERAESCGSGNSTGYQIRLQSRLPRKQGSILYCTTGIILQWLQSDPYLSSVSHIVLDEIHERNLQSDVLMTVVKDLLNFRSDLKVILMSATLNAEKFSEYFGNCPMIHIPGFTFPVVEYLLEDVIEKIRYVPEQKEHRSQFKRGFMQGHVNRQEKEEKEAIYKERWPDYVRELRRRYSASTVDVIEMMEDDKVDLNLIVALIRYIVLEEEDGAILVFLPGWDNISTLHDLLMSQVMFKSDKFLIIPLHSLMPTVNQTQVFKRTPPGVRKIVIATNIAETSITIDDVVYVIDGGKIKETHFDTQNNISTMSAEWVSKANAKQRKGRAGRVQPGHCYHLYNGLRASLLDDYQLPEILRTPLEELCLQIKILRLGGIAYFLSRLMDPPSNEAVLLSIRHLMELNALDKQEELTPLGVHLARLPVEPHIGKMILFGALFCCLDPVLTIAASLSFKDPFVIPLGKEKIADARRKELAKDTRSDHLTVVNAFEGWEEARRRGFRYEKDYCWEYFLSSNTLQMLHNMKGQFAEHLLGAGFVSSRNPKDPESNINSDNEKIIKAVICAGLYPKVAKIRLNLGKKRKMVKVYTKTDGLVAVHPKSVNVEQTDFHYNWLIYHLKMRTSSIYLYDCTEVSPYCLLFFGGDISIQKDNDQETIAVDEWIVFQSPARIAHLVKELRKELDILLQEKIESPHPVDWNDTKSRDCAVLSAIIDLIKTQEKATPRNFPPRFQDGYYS
The test is described as above.
As for B1, the binding signal is -0.223 z-score.

B2 had a binding signal of -0.227 z-score.

Consider B3, for which the binding signal is -0.872 z-score.

For B4, the binding signal was -0.597 z-score.

B5 gave a binding signal of 0.187 z-score.

Molecule B6 displayed a binding signal of -0.553 z-score.

For B7, the binding signal is -0.313 z-score.

B8: the binding signal is -0.00164 z-score.

As for B9, the binding signal is -0.406 z-score.

For the molecule B10, the binding signal was -0.49 z-score.

The molecule B11 yielded a binding signal of -0.592 z-score.

As to B12, the binding signal was -1.07 z-score.

Take B13: the binding signal was -0.499 z-score.

B14 came in with a binding signal of -0.0444 z-score.

For B15, the binding signal was -0.4 z-score.

Consider B16, for which the binding signal was -0.225 z-score.

With B17, the binding signal is 0.251 z-score.

As for B18, the binding signal is -0.297 z-score.

As for B19, the binding signal was -0.961 z-score.

Take B20: the binding signal was -1.31 z-score.

For B21, the binding signal is -0.241 z-score.

Turning to B22, the binding signal was -0.707 z-score.

Molecule B23 showed a binding signal of -0.425 z-score.

Take B24: the binding signal was -1.16 z-score.

In turn, B25 yielded a binding signal of -0.713 z-score.

In turn, B26 displayed a binding signal of -0.826 z-score.

Values taken from article PMC7723054.
